Reference: PubChem BioAssay AID651702 (NMMLSC, 2012)
Only a part is listed here, and it is no random draw. Some results for these compounds are left out of this collection, so the calls shown say nothing about other tests. Active and inactive are the calls of the source.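 How the source made its calls: active means inhibition above about 55% (limit read from the data); inconclusive means no clear call, values can overlap the other calls; inactive means the rest.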

Assay: LAMP-1 surface exposure blockers, TALL-104 cells – cell-based, flow cytometry, MLPCN library, primary screen (AID 651702)
Conditions: TALL-104 LAMP-1 surface exposure, at 10 µM, stronger effect = higher value, cells stimulated with thapsigargin and PMA

Row | Structure (SMILES) | inhibition
1 | O=C(NCC1(N2CCCCC2)CCCCC1)c1cccc(Cl)c1 | inactive: -2.9%
2 | COc1ccc(Cl)cc1C(=O)NCC1(N(C)C)CCCCC1 | inactive: -1.4%
3 | COc1cccc(C(=O)NCC2(N3CCCCC3)CCCCC2)c1 | inactive: -0.4%
4 | COc1cc(C(=O)NCC2(N(C)C)CCCCC2)c([N+](=O)[O-])cc1OC | inactive: -7.8%
5 | CN(C)C1(CNC(=O)c2ccc(Br)cc2)CCCCC1 | inactive: -0.1%
6 | CN(C)c1cccc(C(=O)NCC2(N(C)C)CCCCC2)c1 | inactive: -2.3%
7 | O=C(OCCN1CCCC1)C(O)(c1ccccc1)c1ccccc1 | inactive: 6.5%
8 | CC(C)Oc1ccc(C(=O)NCC2(N(C)C)CCCCC2)cc1 | inactive: 7.2%
9 | COc1ccc(Br)c(C(=O)NCC2(N3CCCCC3)CCCCC2)c1 | inactive: 0.5%
10 | C=C(C)C#CC(O)(C(=O)OC1CCN(C)CC1)c1ccccc1 (stereo unspecified) | inactive: 4.2%
11 | O=C(OC1CN2CCC1CC2)C(CO)(c1ccccc1)c1ccccc1 (stereo unspecified) | inactive: 5.3%
12 | Cc1ccc(C(=O)NCC2(N3CCCCC3)CCCCC2)cc1 | inactive: 15.6%
13 | CC(C)N1C(=O)CC2(CCN(CCOC(=O)C(O)(c3ccccc3)c3ccccc3)CC2)C1=O | inactive: -1%
14 | COc1cc(SC)ccc1C(=O)NCC1(N(C)C)CCCCC1 | inactive: -9.5%
15 | CCN(CC)CC(C)C(C)OC(=O)C(O)(c1ccccc1)c1ccccc1 (stereo unspecified) | inactive: -1.4%
16 | CN1[C@@H]2CC[C@H]1CC(OC(=O)C(O)(c1ccccc1)c1ccccc1)C2 (stereo partly specified) | inactive: 2.7%
17 | O=C(NCC1(N2CCCCC2)CCCCC1)c1cc([N+](=O)[O-])ccc1Cl | inactive: -1.6%
18 | O=C(NCC1(N2CCCCC2)CCCCC1)c1cccc(Br)c1 | inactive: -7.9%
19 | CCN1CCCC(OC(=O)C2(O)c3ccccc3C=Cc3ccccc32)C1 (stereo unspecified) | inactive: -3.8%
20 | Cc1cc(C(=O)NCC2(N3CCCCC3)CCCCC2)ccc1[N+](=O)[O-] | inactive: -5.1%
21 | COc1ccc(C(=O)NCC2(N(C)C)CCCCC2)cc1 | inactive: 2.1%
22 | O=C(NCC1(N2CCCCC2)CCCCC1)c1cc(F)c(F)cc1Cl | inactive: 4%
23 | C=CCN1CCN(CCOC(=O)C(O)(c2ccccc2)c2ccccc2)CC1 | inactive: -0.6%
24 | CN(C)c1ccc(C(=O)NCC2(N(C)C)CCCCC2)cc1 | inactive: 15.1%
25 | CN(C)C1CCCC1OC(=O)C(O)(c1ccccc1)c1ccccc1 (stereo unspecified) | inactive: 0.5%
26 | Cc1ccccc1C(=O)NCC1(N2CCCCC2)CCCCC1 | inactive: 1.7%
